Literature values as cited in patent publication US20040236125A1, “Novel structures and compositions comprising sterols and/or stanols and specific classes of anti-inflammatory agents and use thereof in treating or preventing cardiovascular disease, its underlying conditions including hyperlipidemia and other disorders having inflammation as part of their …” (FORBES MEDI-TECH INC., priority 2002, published 2004).

Protein sequences, listed by entry. Tags and fused reporters are not part of them. Residues count along the entry.
UniProt P79208, 17-603: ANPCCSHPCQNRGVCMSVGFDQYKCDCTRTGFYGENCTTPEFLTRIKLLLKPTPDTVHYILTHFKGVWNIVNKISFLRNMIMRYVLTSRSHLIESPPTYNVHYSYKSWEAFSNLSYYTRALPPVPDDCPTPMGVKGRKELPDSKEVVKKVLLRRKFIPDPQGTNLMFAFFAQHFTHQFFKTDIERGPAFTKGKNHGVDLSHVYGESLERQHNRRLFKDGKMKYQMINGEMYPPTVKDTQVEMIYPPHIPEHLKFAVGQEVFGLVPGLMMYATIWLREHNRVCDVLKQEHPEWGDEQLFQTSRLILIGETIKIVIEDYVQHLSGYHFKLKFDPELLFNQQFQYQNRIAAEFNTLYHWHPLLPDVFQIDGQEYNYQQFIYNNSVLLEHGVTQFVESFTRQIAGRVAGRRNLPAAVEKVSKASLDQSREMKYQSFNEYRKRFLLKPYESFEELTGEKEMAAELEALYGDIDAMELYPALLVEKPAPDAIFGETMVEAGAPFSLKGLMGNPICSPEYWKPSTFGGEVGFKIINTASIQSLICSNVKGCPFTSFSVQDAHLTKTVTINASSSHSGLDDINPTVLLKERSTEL

Target: COX-2 (Ovis aries, UniProt P79208)
Conditions: read-out: IC50 (inhibitor of COX-2); reference inhibitor, FIG. 5 legend; cited from earlier work

## CS(=O)(=O)c1ccc(-c2cc(Br)sc2-c2ccc(F)cc2)cc1 [DuP-697]
  IC50: 50 nM
